## Antibody variant affinities, Ab-91 heavy chain, assay 2

From the AlphaSeq antibody data of Engelhart et al. 2022 (doi:10.1038/s41597-022-01779-4), copy in the FLAb collection.

Binding partner: SARS-CoV-2 spike HR2 peptide, sequence PDVDLGDISGINAS.

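Library AAYL51 holds single substitutions and randomly drawn double and triple substitutions in the CDRs. The assay is AlphaSeq: two haploid yeast populations carry antibody and antigen on their surface. The frequency of each diploid, read from paired DNA barcodes, reflects how well the two displayed proteins bind. Each replicate has its own calibration line, from reference interactions of the BCL2 family. The assay was run in three technical replicates.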

Ab-91 is the parent antibody, in scFv form: VL, then the linker GGGGSGGGGSGGGGS, then VH. The light chain is unchanged in all variants.
VL: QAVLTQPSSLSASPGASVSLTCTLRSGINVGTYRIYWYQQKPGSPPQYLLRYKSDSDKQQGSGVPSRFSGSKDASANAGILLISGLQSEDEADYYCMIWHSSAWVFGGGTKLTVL
VH: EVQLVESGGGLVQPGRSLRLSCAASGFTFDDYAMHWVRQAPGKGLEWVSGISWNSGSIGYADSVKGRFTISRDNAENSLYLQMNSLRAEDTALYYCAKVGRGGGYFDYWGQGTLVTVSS

Substitutions are numbered in sequence along the VH above, starting at 1 (not Kabat). Only single mutants are listed, position by position. The read-out is the apparent dissociation constant on a log10 scale (nM): the lower, the stronger. A mean of the replicates is given; it leaves out those without a signal. An entry "ND" has no value in the source: the pair was not observed among the diploids in that replicate. This suggests poor binding but is not conclusive. As a blank, each scFv also met three strains without target: over library AAYL51, 21% of these pairings were detected, typically at 4.54 and seldom below 3.26.

changes,log10 Kd (nM) by replicate,"mean, log10 nM"
K65W,3.06 / 2.76 / 2.70,2.84
K65A,2.22 / 2.25 / 2.07,2.18
V99P,ND / ND / ND,ND
V99K,ND / 4.72 / ND,4.72
V99D,6.00 / 6.01 / ND,6.01
V99C,ND / 3.68 / ND,3.68
V99Q,2.89 / 2.64 / 3.34,2.96
V99L,ND / ND / ND,ND
V99G,1.58 / 1.73 / 0.85,1.39
V99Y,ND / ND / 3.91,3.91
V99T,ND / ND / ND,ND
V99F,ND / ND / 2.83,2.83
V99S,2.57 / 2.31 / 2.41,2.43
V99A,4.61 / 4.50 / ND,4.56
V99N,4.51 / 4.69 / 4.89,4.70
V99W,2.83 / 3.82 / 2.22,2.95
V99E,4.72 / ND / ND,4.72
V99M,3.55 / ND / ND,3.55
V99H,ND / ND / ND,ND
V99I,1.53 / 1.84 / 1.32,1.56
G100V,ND / ND / ND,ND
G100Y,1.79 / 1.84 / 1.22,1.62
G100R,2.14 / 2.14 / 1.98,2.09
G100C,4.04 / ND / ND,4.04
G100M,1.70 / 1.82 / 1.55,1.69
G100P,2.11 / 2.27 / 2.01,2.13
G100D,ND / ND / ND,ND
G100N,ND / ND / ND,ND
G100S,ND / ND / ND,ND
G100L,ND / ND / ND,ND
G100H,1.51 / 1.82 / 0.63,1.32
G100A,ND / ND / 4.63,4.63
G100F,1.99 / 1.63 / 1.61,1.75
G100E,3.80 / ND / ND,3.80
R101F,2.53 / 2.70 / 2.96,2.73
R101E,ND / ND / ND,ND
R101M,1.71 / 2.07 / 1.58,1.79
R101G,ND / ND / ND,ND
R101S,1.58 / 1.56 / 1.14,1.43
R101Q,1.58 / 1.72 / 1.24,1.51
R101W,3.74 / 4.16 / 4.03,3.97
R101D,1.16 / 1.20 / 0.66,1.01

4 of these entries, quoted again:

{"changes": "K65W", "log10 Kd (nM) by replicate": "3.06 / 2.76 / 2.70", "mean, log10 nM": "2.84"}
{"changes": "V99G", "log10 Kd (nM) by replicate": "1.58 / 1.73 / 0.85", "mean, log10 nM": "1.39"}
{"changes": "R101Q", "log10 Kd (nM) by replicate": "1.58 / 1.72 / 1.24", "mean, log10 nM": "1.51"}
{"changes": "V99H", "log10 Kd (nM) by replicate": "ND / ND / ND", "mean, log10 nM": "ND"}

In this assay the parent's reference entry averaged 1.86; its copy inside this library read 0.88.